Results from patent US6858588B2, “Nitrile glycoside useful as a bioenhancer of drugs and nutrients, process of its isolation from moringa oleifera” (Council of Scientific and Industrial Research, priority 2003, dated 2005).

Columns and labels:
[1] = system: E. coli CA8000; assay: Enhancement of bacterial transformation with pUC18 plasmid DNA, CA8000; details: niaziridin @1-10 μg/ml for 4 hours
[2] = system: E. coli DH5α; assay: Enhancement of bacterial transformation with pUC18 plasmid DNA, DH5α; details: strain DH5α; niaziridin @1-10 μg/ml for 4 hours

Work on `CC1OC(Oc2ccc(CC#N)cc2O)C(O)C(O)C1O` (centres unmarked) [Niaziridin, NIAZIRIDIN] yielded an Increase in transformation [1] of 5.5 folds and an Increase in transformation [2] of 2.3 folds.
